The values below are quoted from earlier work in US11826432B2, “Linkers, conjugates and applications thereof” (priority 2021, dated 2023).

The conditions of the data set: patients; cited from earlier work.

On to Enhertu, for which the “interstitial lung disease caused” value is given as “more than 10%”.
